Measured values as given in patent US20260315521A1, “THERAPEUTIC FORMULATIONS FOR KIDNEY DISEASE COMPRISING REPAGERMANIUM OR PROPAGERMANIUM AND/OR AT1R BLOCKERS” (DIMERIX BIOSCIENCE PTY LTD, priority 2023, published 2026).

Legend:
AT1R [1] = biological target: T1, AT1R (Homo sapiens, UniProt P30556); test: ARB potency or affinity at AT1R only (public sources: IUPHAR guide to pharmacology, Michel et al 2013, Choung et al 2018); assay type: binding; conditions: reference value
[2] = biological target: T2, co-stimulated CCR2-AT1R complexes (Homo sapiens, UniProt P30556); test: Gαi protein dissociation assay (ligand-induced BRET) in HEK293FT cells co-stimulated with AngII and MCP-1/CCL2; assay type: cell-based; conditions: compared to AT1R only; ROUT Q=1
T2 construct: HA (haemagglutinin); expressed in transfected cells; host or cells: HEK293FT

AT1R [3] = biological target: T1, AT1R; conditions: pIC50 or pKb from IUPHAR and/or Michel et al (2013), fimasartan from Choung et al 2018; cited from earlier work

| Structure (SMILES) | Fold decrease in potency, AT1R only (AT1R [1]) | potency for inhibition of Gαi protein activation at co-stimulated CCR2-AT1R complexes (outlier analysis) [2] | Potency (pIC50/pKb), AT1R only (AT1R [3]) |
| --- | --- | --- | --- |
| CCCCc1nc(Cl)c(C(=O)O)n1Cc1ccc(-c2ccccc2-c2nn[nH]n2)cc1 [EXP3174] | 1.00 fold | lower-than-expected potency | 9.62 |
| CCCc1nc(C(C)(C)O)c(C(=O)O)n1Cc1ccc(-c2ccccc2-c2nnn[nH]2)cc1 [Olmesartan] | 1.00 fold |  | 9.9 |
| CCCc1nc2c(C)cc(-c3nc4ccccc4n3C)cc2n1Cc1ccc(-c2ccccc2C(=O)O)cc1 [Telmisartan] | 1.00 fold |  | 8.61 |
| CCCCC(=O)N(Cc1ccc(-c2ccccc2-c2nnn[nH]2)cc1)[C@H](C(=O)O)C(C)C [Valsartan] |  |  | 9.26 |
